IC50 data for one compound are collected here from patent publication US8969405B2, “Anticancer compounds and methods of making and using same” (St. Jude Children's Research Hospital, priority 2008, dated 2015).

Structures are written as SMILES. pIC50: −log10 of the molar value.

The assay concerns WiDr colorectal cancer cell line. Put plainly: In vitro cytotoxicity analysis (XTT), 72-hour exposure. In kind it is cell-based. The conditions noted are these: Homo sapiens, read-out: Cytotoxicity IC50. As to the method:
Briefly, cell lines were seeded at various cell densities depending on the cell type.
In general terms: Formazan colour is commonly taken as a measure of viable cells.

Usually pIC50 stands for the negative decadic logarithm of the IC50, by convention in mol/L. For the compound `CC(/C=C/[C@@H]1C[C@]2(CO2)CC(C)(C)O1)=C\C[C@H]1CC[C@@H](NC(=O)/C=C\[C@H](C)OC(=O)N2CCN(C3CCCCCC3)CC2)CC1` [Compound 24, (S,Z)-5-((1R,4R)-4-((2E,4E)-5-((3R,5S)-7,7-dimethyl-1,6-dioxaspiro[2.5]octan-5-yl)-3-methylpenta-2,4-dienyl)cyclohexylamino)-5-oxopent-3-en-2-yl 4-cycloheptylpiperazine-1-carboxylate], the pIC50 is 5.30 to 5.40.
